The list shows a part of the results, in another mix than the full data. Active and inactive are the calls of the source. How the source made its calls: active means hit-call score of the fitted dose curve at least 0.9, where 1 is the maximum; inactive means score below 0.9.

Protein sequences, listed by entry. Tags and fused reporters are not part of them. Lines headed by an entry give the natural chain unless they say otherwise; changes in a name come on top.
UniProt P17861: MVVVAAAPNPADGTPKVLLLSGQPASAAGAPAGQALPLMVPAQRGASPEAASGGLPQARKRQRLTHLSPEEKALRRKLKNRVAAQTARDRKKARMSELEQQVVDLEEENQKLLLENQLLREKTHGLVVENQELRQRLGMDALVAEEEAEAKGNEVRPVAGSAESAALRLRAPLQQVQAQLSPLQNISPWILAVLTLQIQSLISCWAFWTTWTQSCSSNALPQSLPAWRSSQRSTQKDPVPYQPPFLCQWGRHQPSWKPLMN

This test deals with X-box-binding protein 1 (Homo sapiens) (UniProt P17861). Nature of the test: ATG_Xbp1_CIS: Attagene CIS-FACTORIAL HepG2 Assay for human X-box Binding Protein 1 (XBP1) (AID 2282972). As to conditions: HepG2 XBP1 cis-element reporter, Attagene multiplex; actives raise or lower the signal. The method, then:
ATG_CIS is a cell-based, multiplexed-readout assay that uses HepG2, a human liver cell line, with measurements taken at 24 hours after chemical dosing in a 24-well plate.ATG_Xbp1_CIS is one of 52 assay component(s) measured or calculated from the ATG_CIS assay. It is designed to make measurements of mRNA induction, a form of inducible reporter, as detected with fluorescence intensity signals by Reverse transcription polymerase chain reaction (RT-PCR) and Capillary electrophoresis technology.Data from the assay component ATG_Xbp1_CIS was analyzed into 1 assay endpoint. This assay endpoint, ATG_Xbp1_CIS, was analyzed with bidirectional fitting relative to DMSO as the negative control and baseline of activity. Using a type of inducible reporter, measures of mRNA for gain or loss-of-signal activity can be used to understand the reporter gene at the transcription factor-level as they relate to the gene XBP1. Furthermore, this assay endpoint can be referred to as a primary readout, because this assay has produced multiple assay endpoints where this one serves a reporter gene function. To generalize the intended target to other relatable targets, this assay endpoint is annotated to the dna binding intended target family, where the subfamily is basic leucine zipper.
Human liver HepG2 cells are transiently transfected with multiple reporter transcription units (MRTUs) in 6-well plates using FuGene 6 reagent (Roche; 3 ml FuGene/1 mg DNA). The MRTU constructs are regulated by a cis-regulating element (promoter). […] A major difference between the CIS and TRANS system is that in CIS activities of endogenous TFs are measured, whereas the TRANS assay evaluates changes in activities of exogenous, chimeric NR-Gal4 proteins. […] At the end of 24 hour incubation, total RNA was isolated using TriZol reagent (Invitrogen). The isolated RNA is then reverse-transcribed using oligo(dT) primer and Mo-MLV reverse transcriptase (Invitrogen) with DNAse I (Ambion) treatment for 30 min. The one-tenth of the produced cDNA was amplified by PCR using Taq DNA polymerase (Invitrogen) and two reporter sequence-specific primers. The PCR products were fluorescently labeled by primer extension with 6-arboxyfluorescein (6-FAM) 5'-labeled reporter sequence-specific primer (2 min at 95 C, 20 s at 68 C and 10 min at 72 C) and these products were digested with 5U of HpaI (New England Biolabs) for 2h at 37 C. The fragments were purified using Qiaquick PCR columns (Qiagen), analyzed on an ABI 3130xL genetic analyzer (Applied Biosystems) with peak positions identified by using a set of X-rhodamine (ROX)-labeled MapMarker1000 molecular weight standards (BioVentures). The raw capillary electrophoresis data was processed using Attagraph software (Attagene).
In the case of `CCCCC(CC)CO[P+](=O)OCC(CC)CCCC` (stereo unspecified), the outcome was inactive.

As to `O=[As]c1ccccc1` (stereo unspecified), the AC50 was active: 0.334 µM.

`CC(C)CCCCCCCOP(OCCCCCCCC(C)C)Oc1ccccc1`: the call was inactive.

As for `CCCCO[P+](=O)OCCCC`, the compound was classed as inactive.

For the compound `O=C(Cl)OCCOC(=O)Cl`, the result was inactive.

Regarding `N#CSc1ccc([N+](=O)[O-])cc1[N+](=O)[O-]`, the outcome was inactive.

Regarding `O=[P+](Oc1ccccc1)Oc1ccccc1`, the compound was classed as inactive.

Take `CCCCOP(OCCCC)OCCCC`: the outcome was inactive.

For `ClP(Cl)c1ccccc1`, the call was inactive.

On to `CN(C(=O)Cc1cccc2occc12)[C@H]1CC[C@@]2(CCCO2)C[C@@H]1N1CCCC1`, for which the compound was classed as inactive.

`O=P(Cl)(Oc1ccccc1)Oc1ccccc1`: the compound was classed as inactive.

With `O=[p+]1oc2ccccc2c2ccccc21` (stereo unspecified), the result was inactive.

Regarding `CC(C)OP(=S)(OC(C)C)SCCNS(=O)(=O)c1ccccc1`, the outcome was inactive.

As to `O=C1C2CC=CCC2C(=O)N1SC(Cl)(Cl)C(Cl)Cl` (stereo unspecified), the compound was classed as inactive.

For `Cc1cc([N+](=O)[O-])cc([N+](=O)[O-])c1O`, the AC50 was active: 67.4 µM.

Consider `O=C(Cl)Oc1ccccc1`, for which the call was inactive.

For orientation: AC50 means the concentration giving half of the maximal activity seen.

The values are drawn from PubChem BioAssay (EPA / NIEHS).
